Compound activity deposited in PubChem by National Center for Advancing Translational Sciences (NCATS).
Shown are actives, neighbours in structure and some others; about 16% of the full set was active somewhere.
TDP1 inh: TDP1 (human) enzyme inhibition. Q9NUW8. recombinant TDP1, AlphaScreen DNA substrate cleavage. Potency, µM (series often up to 130 µM), usual class: inhibitors. 0.28% of 350,000 active. AID 485290; also: nearly all actives have a fitted effect of over 40% in size
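Recombinant E. coli-expressed Tdp1 (1 nM) preincubated with compound 15 min at RT, then 5'-biotin/3'-phosphotyrosine-FITC DNA substrate (15 nM) added for 5 min. AlphaScreen beads (10 ug/ml) added, 10 min RT; tyrosine-FITC cleavage read as signal loss.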
DT40 TDP1 no CPT: qHTS for Inhibitors of human tyrosyl-DNA phosphodiesterase 1 (TDP1): qHTS in cells in absence of CPT; DT40 Tdp1-/- hTDP1 cells, no CPT, ATP luminescence, 48 h; Potency, µM (doses to about 46.2 µM), most hits filed as inhibitors; 15% of 420,000 active; AID 686978, 2013; also: nearly all actives have a fitted effect of over 55% in size
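Chicken DT40 Tdp1-/- cells complemented with human TDP1, screened without camptothecin (DMSO vehicle only), 400 cells/well. Compounds pin-transferred, cells incubated at 37 °C for at least 48 hr. Growth read as ATP-dependent luminescence (CellTiter-Glo, 30 min at RT).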
uPA generation: blocks generation of uPA at the cell surface | cell surface uPA generation assay, qHTS | Potency, µM (top dose mostly 38.3 µM), hits mostly inhibitors | 0.31% of 330,000 active | AID 540303; active = well fitted inhibition curve with a large enough effect; inconclusive = small, poorly fitted or top-dose-only effect; inactive = no such curve, though single readings can be large or run the other way; tested in mouse RAW 264.7 cells; also: nearly all actives have a fitted effect of over 55% in size
miR-21 FLuc: miR-21 reporter, rising signal; Potency, µM (titrated, usually from 38.3 µM); AID 2288; 340,000 tested, under 10 active; HeLa miR-21 FLuc reporter, luciferase, 48 h; active = well fitted rising curve with a large enough effect; inconclusive = small, poorly fitted or top-dose-only effect; inactive = no such curve, though single readings can be large or run the other way;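 note: miR-21 action dims this reporter so a rising signal means less miR-21 action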
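HeLa cells endogenously expressing miR-21, stably carrying CMV-driven firefly luciferase with a downstream miR-21 binding site, 2000 cells/well. Titrations up to approximately 40 uM, 48 hours; luciferase luminescence read.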
TDP1 cell CPT: growth inhibition of DT40 Tdp1-/-;hTDP1 cells with camptothecin (screen for TDP1 inhibitors); chicken DT40 Tdp1-/-;hTDP1 cells + 20 nM CPT, ATP luminescence, 48 h; Potency, µM (doses to about 46.2 µM), most hits filed as inhibitors; AID 686979; 12% of 420,000 active; also: nearly all actives have a fitted effect of over 55% in size
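Chicken DT40 Tdp1-/- cells stably complemented with human TDP1 were seeded at 400 cells/well in medium containing 20 nM camptothecin, exposed to pin-transferred compounds, and grown at 37 °C for at least 48 hr. Viability was read as ATP luminescence.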
Of the large screens only hits and unclear results are named; the others gave an inactive call. Unless noted, calls follow the shape of the dose curve; as a rule, active = well fitted curve in the direction sought with a large enough effect; inconclusive = small, poorly fitted or top-dose-only effect, or another doubt; inactive = no such curve, though single readings can be large; an effect the other way counts as inactive or inconclusive.

O=C1N/C(=N\N=C\c2ccccn2)SC1Cc1cccc(SC(F)F)c1 (configuration not stated)	DT40 TDP1 no CPT 5.8µM, TDP1 cell CPT 7.3µM
O=C1N/C(=N\N=C\c2cccs2)SC1Cc1cccc(Cl)c1 (configuration not stated)	DT40 TDP1 no CPT 10µM, TDP1 cell CPT 12µM
O=C1N/C(=N\N=C\c2ccc3ncccc3c2)SC1Cc1ccc(SC(F)F)cc1 (configuration not stated)	none (no result: uPA generation)
O=C1N/C(=N\N=C\c2cccnc2)SC1Cc1ccc(SC(F)F)cc1 (configuration not stated)	DT40 TDP1 no CPT 3.7µM, TDP1 cell CPT 2.9µM
COc1cccc(-n2ccnc2SCC(=O)Nc2cc(C)on2)c1	DT40 TDP1 no CPT inconclusive
O=C(CN1CCN(Cc2ccc(Cl)cc2)CC1)N/N=C/C=C/c1ccccc1[N+](=O)[O-]	DT40 TDP1 no CPT 18µM, TDP1 cell CPT inconclusive
O=C(CSc1nnc(SCc2ccccc2Cl)s1)N/N=C/c1c[nH]c2ccccc12	DT40 TDP1 no CPT inconclusive, TDP1 cell CPT 26µM
O=C(CSc1nnc(SCc2ccccc2)s1)N/N=C/C=C/c1ccccc1[N+](=O)[O-]	DT40 TDP1 no CPT 16µM, TDP1 cell CPT inconclusive
O=C(CSc1nnc(SCc2ccccc2)s1)N/N=C/C=C\c1ccco1	TDP1 inh inconclusive, DT40 TDP1 no CPT inconclusive, TDP1 cell CPT inconclusive
O=C(CSc1nnc(SCc2ccccc2)s1)N/N=C/c1c[nH]c2ccccc12	TDP1 inh 10µM
O=C(CSc1nnc(SCc2ccccc2)s1)N/N=C/c1ccc(Cl)cc1Cl	DT40 TDP1 no CPT inconclusive
O=C(CCC(=O)Nc1ccccc1Cl)N/N=C/c1c[nH]c2ccccc12	DT40 TDP1 no CPT inconclusive
CC(=O)c1ccc(N(C(=O)CNC(=O)c2ccco2)C(C(=O)NCC2CCCO2)c2ccccc2)cc1 (configuration not stated)	none
O=C(O)c1ccc(Cl)c(S(=O)(=O)N(Cc2ccccc2)c2ccc(F)cc2)c1	none (no result: TDP1 inh)
Clc1ccc(-c2ccccc2)nn1	none
CCCc1nc2cc(Cl)c([N+](=O)[O-])cc2o1	none
O=C(CSc1nnc(SCc2ccc(Cl)cc2)s1)N/N=C/c1c(Cl)cccc1Cl	DT40 TDP1 no CPT 26µM, TDP1 cell CPT inconclusive
O=C(CSc1nnc(SCc2ccc(Cl)cc2)s1)N/N=C/c1ccc(Cl)cc1Cl	none
Cc1ccc(CSc2nnc(SCC(=O)N/N=C/c3c[nH]c4ccccc34)s2)cc1	TDP1 inh 6.3µM, DT40 TDP1 no CPT inconclusive, TDP1 cell CPT inconclusive
CCN1CCCC1CNC(=O)Cn1ncc2c(=O)oc3ccc(C)cc3c21 (configuration not stated)	none
Cc1ncc(CO)c2c1Oc1nc(-c3ccccc3)nc(SCC(=O)Nc3cccc(C(F)(F)F)c3)c1C2	DT40 TDP1 no CPT 4.6µM, TDP1 cell CPT 6.5µM (no result: uPA generation)
Cc1ncc(CO)c2c1Oc1nc(-c3ccccc3)nc(SCC(=O)Nc3cccc(O)c3)c1C2	DT40 TDP1 no CPT 26µM, TDP1 cell CPT inconclusive
CCc1ccccc1NC(=O)CSc1nc(-c2cccc(Cl)c2)nc2c1Cc1c(CO)cnc(C)c1O2	none (no result: uPA generation)
CCOc1ccc(NC(=O)CSc2nc(-c3ccc(OC)cc3)nc3c2Cc2c(CO)cnc(C)c2O3)cc1	none (no result: uPA generation)
CCc1ccc(NC(=O)CSc2nc(-c3ccc(C)cc3)nc3c2Cc2c(CO)cnc(C)c2O3)cc1	TDP1 inh inconclusive (no result: uPA generation)
COc1ccc(-c2nc3c(c(SCC(=O)Nc4cccc(O)c4)n2)Cc2c(CO)cnc(C)c2O3)cc1	DT40 TDP1 no CPT 18µM, TDP1 cell CPT inconclusive
Cc1ncc(CO)c2c1Oc1nc(-c3ccc(F)cc3)nc(SCC(=O)N3CCCCC3)c1C2	DT40 TDP1 no CPT 9.2µM, TDP1 cell CPT 16µM (no result: uPA generation)
Cc1c(NC(=O)c2nc3ccccc3n(C)c2=O)cccc1[N+](=O)[O-]	DT40 TDP1 no CPT inconclusive (no result: uPA generation)
O=C(N/N=C/c1ccc(-c2ccccc2[N+](=O)[O-])o1)c1cccnc1	DT40 TDP1 no CPT inconclusive, TDP1 cell CPT 16µM
CC(C)(C)c1cc(C(=O)N/N=C/c2ccc(-c3ccccc3[N+](=O)[O-])o2)n[nH]1	DT40 TDP1 no CPT inconclusive, TDP1 cell CPT inconclusive
O=S(=O)(N/N=C\c1ccc(-c2ccccc2Cl)o1)c1ccccc1	TDP1 inh inconclusive, DT40 TDP1 no CPT 11µM, TDP1 cell CPT 11µM
CC(=O)Nc1ccc(S(=O)(=O)N/N=C/c2ccc(C)o2)cc1	TDP1 inh inconclusive
O=C(N/N=C/c1ccc(-c2ccccc2Cl)o1)c1ccccc1	DT40 TDP1 no CPT 18µM, TDP1 cell CPT 15µM
O=C(O)c1ccc(N/N=C/c2ccc(-c3ccccc3Cl)o2)cc1	none
N#CC1=C(N)Oc2n[nH]c(-c3cccnc3)c2C1c1cc(F)ccc1F (configuration not stated)	DT40 TDP1 no CPT inconclusive
O=C(Cn1ccc([N+](=O)[O-])n1)Nc1nc2ccccc2s1	none
CN(C)c1ncnc2ccc(-c3cccnc3)cc12	DT40 TDP1 no CPT 23µM, TDP1 cell CPT 12µM (no result: TDP1 inh, uPA generation, miR-21 FLuc)
COc1cccc(-c2ccc3ncnc(N(C)C)c3c2)c1	DT40 TDP1 no CPT inconclusive, TDP1 cell CPT 21µM (no result: TDP1 inh, uPA generation, miR-21 FLuc)
CCc1cc(C(=O)N2CCOc3ccc(CN4CCN(Cc5ccccn5)CC4)cc3C2)no1	none (no result: TDP1 inh, uPA generation, miR-21 FLuc)
CNS(=O)(=O)c1ccc(NC(=O)Nc2cccc(F)c2)cc1	none
COc1cccc(OC)c1C(=O)OCC(=O)N(c1ccccc1)C1CCCCC1	DT40 TDP1 no CPT 8.2µM, TDP1 cell CPT 15µM (no result: miR-21 FLuc)
O=C(OCC(=O)N(c1ccccc1)C1CCCCC1)c1ccc(CO)cc1	DT40 TDP1 no CPT inconclusive, TDP1 cell CPT inconclusive (no result: miR-21 FLuc)
COc1ccc(-c2noc(N3CCC(C(=O)N4CCN(c5ccccc5OC)CC4)CC3)n2)cc1	DT40 TDP1 no CPT 8.2µM, TDP1 cell CPT 10µM (no result: uPA generation)
COc1ccc(-c2noc(N3CCC(C(=O)Nc4ccc(OC)cc4OC)CC3)n2)cc1	DT40 TDP1 no CPT inconclusive, TDP1 cell CPT inconclusive (no result: TDP1 inh)
COc1ccc(C2=NOC(C(=O)N3CCN(c4ccccc4OC)CC3)C2)cc1 (configuration not stated)	DT40 TDP1 no CPT 23µM, TDP1 cell CPT 16µM
COc1ccc(-c2noc(N3CCC(C(=O)N4CCN(c5cccc(OC)c5)CC4)CC3)n2)cc1	DT40 TDP1 no CPT 3.3µM, TDP1 cell CPT 6.5µM (no result: uPA generation)
COc1ccc(-c2noc(N3CCC(C(=O)N4CCN(c5ccccn5)CC4)CC3)n2)cc1	DT40 TDP1 no CPT 10µM, miR-21 FLuc inconclusive, TDP1 cell CPT 23µM
COc1ccccc1N1CCN(C(=O)C2CC2)CC1	none (no result: TDP1 inh, miR-21 FLuc)
COc1ccc(Cl)cc1C(=O)NCC(c1ccco1)N(C)C (configuration not stated)	DT40 TDP1 no CPT inconclusive
COc1cccc(-c2nc(CS(=O)(=O)CC(=O)Nc3cc(C)ccc3C)c(C)o2)c1	DT40 TDP1 no CPT inconclusive, TDP1 cell CPT inconclusive
COc1ccc2c(c1)c1nnc(SCC(=O)NC3CC3)nc1n2C	none
